Each structure is given as a SMILES string. Only a part is listed here, and it is no random draw. Potency and affinity values are given separately. The source made the active and inactive calls. No stated cut-off is given here; in the data, active means inhibition above about 50%; inactive means the rest.

By UniProt entry, the sequences of proteins in these tests, tags left out.
UniProt P41145, whole entry: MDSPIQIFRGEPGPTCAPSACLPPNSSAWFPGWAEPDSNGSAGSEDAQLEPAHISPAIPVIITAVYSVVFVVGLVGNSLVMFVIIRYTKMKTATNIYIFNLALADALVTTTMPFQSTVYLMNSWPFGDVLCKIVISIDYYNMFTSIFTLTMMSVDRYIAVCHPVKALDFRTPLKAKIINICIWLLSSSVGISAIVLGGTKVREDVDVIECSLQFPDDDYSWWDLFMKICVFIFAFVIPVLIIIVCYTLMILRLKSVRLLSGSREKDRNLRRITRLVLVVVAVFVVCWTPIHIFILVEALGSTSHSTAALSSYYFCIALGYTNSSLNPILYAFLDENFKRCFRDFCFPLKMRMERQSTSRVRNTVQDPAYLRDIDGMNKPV

By inhibition is commonly meant the relative decrease from the control value, in per cent.

This assay deals with Kappa-type opioid receptor (Homo sapiens) (UniProt P41145). Kind of assay: kappa opioid receptor blockers – cell-based, luminescence, uHTS (AID 1778). Conditions: KOR beta-arrestin recruitment, antagonist mode, at 10 µM, stronger effect = higher value. (In general: Arrestin recruitment assays detect the binding of arrestin to an activated receptor.)
Turning to `CCCOc1ccc(NP(C)(=O)Oc2ccc(Cl)cc2)cc1` (stereo not given), the inhibition was inactive: -9.2%.

For `CP(=O)(Nc1ccc(SC(F)(F)F)cc1)Oc1ccccc1` (stereo not given), the inhibition was inactive: -17.7%.

On to `COc1ccccc1OP(C)(=O)Nc1c(C)cccc1C` (stereo not given), for which the inhibition was inactive: 9.6%.

Consider `CCOC(=O)C(CC)C1=NC(C)(C)Cc2ccccc21.O=[N+]([O-])c1cc([N+](=O)[O-])c(O)c([N+](=O)[O-])c1` (stereo not given), for which the inhibition is inactive: 19%.

For `CN(C)C1(CNC(=O)c2ccc(S(C)(=O)=O)cc2)CCCCC1`, the inhibition is inactive: -10.6%.

Consider `O=[N+]([O-])c1cc([N+](=O)[O-])c(Nc2nnnn2CCO)c([N+](=O)[O-])c1`, for which the inhibition is inactive: 45.5%.

As to `Cc1nc2ccc3ccccc3c2s1.O=[N+]([O-])c1cc([N+](=O)[O-])c(O)c([N+](=O)[O-])c1`, the inhibition is inactive: -23.5%.

With `O=[N+]([O-])c1cc([N+](=O)[O-])c(-n2nnc3ccccc32)c([N+](=O)[O-])c1`, the inhibition is inactive: 15.1%.

Regarding `Cc1cc(C)cc(OP(C)(=O)Nc2ccccn2)c1` (stereo not given), the inhibition was inactive: -2.9%.

Take `CP(=O)(Nc1cccc(Br)c1)Oc1ccccc1` (stereo not given): the inhibition is inactive: -34.8%.

For `Cc1ccc(C)c(NP(C)(=O)Oc2ccccc2)c1` (stereo not given), the inhibition was inactive: -7.9%.

For `Cc1cc(C)cc(OP(C)(=O)Nc2ccc(C)cc2C)c1` (stereo not given), the inhibition was inactive: -19.1%.

`CCOC(=O)c1ccc(NP(C)(=O)Oc2cc(C)cc(C)c2)cc1` (stereo not given): the inhibition was inactive: 8.6%.

Consider `COc1ccccc1OP(C)(=O)Nc1cccc(Br)c1` (stereo not given), for which the inhibition was inactive: 11.5%.

As to `COc1cc(C(=O)NCC2(N3CCOCC3)CCCCC2)cc(Cl)c1OC(C)C`, the inhibition is inactive: -0.7%.

For `CC1=NCCc2c1[nH]c1ccccc21.O=[N+]([O-])c1cc([N+](=O)[O-])c(O)c([N+](=O)[O-])c1`, the inhibition is inactive: 26.7%.

On to `O=C(O)c1cccc(Nc2c([N+](=O)[O-])cc([N+](=O)[O-])cc2[N+](=O)[O-])c1`, for which the inhibition is inactive: 14.8%.

Take `COc1ccc(OP(C)(=O)Nc2cccc(F)c2)cc1` (stereo not given): the inhibition was inactive: -22.6%.

With `Cc1cc(C)cc(OP(C)(N)=O)c1` (stereo not given), the inhibition was inactive: 10.9%.

As for `CCOC(=O)c1ccc(NP(C)(=O)Oc2ccccc2)cc1` (stereo not given), the inhibition was inactive: -26.1%.

In the case of `Cc1ccc(NP(C)(=O)Oc2ccccc2)c(C)c1` (stereo not given), the inhibition is inactive: -40.6%.

`COc1ccccc1OP(C)(=O)Nc1ccc(C)cc1` (stereo not given): the inhibition is inactive: -20.3%.

For `Cc1cccc(C)c1OP(C)(N)=O` (stereo not given), the inhibition was inactive: 0.3%.

As for `CC(C)(C)c1ccc(OP(C)(=O)Nc2ccc(SC(F)(F)F)cc2)cc1` (stereo not given), the inhibition is inactive: 2.7%.

With `O=[N+]([O-])c1ccc2c(c1)C=Nc1ccccc1O2`, the inhibition is inactive: -97.8%.

The record behind these values is PubChem BioAssay AID1778 (Sanford-Burnham Center for Chemical Genomics, 2009).
